Experimental data published in paper PMC10708259 (Molecules, 2023).

Chains of the proteins cited; added tags and fusions are not shown.
UniProt P35372, whole entry, looked up: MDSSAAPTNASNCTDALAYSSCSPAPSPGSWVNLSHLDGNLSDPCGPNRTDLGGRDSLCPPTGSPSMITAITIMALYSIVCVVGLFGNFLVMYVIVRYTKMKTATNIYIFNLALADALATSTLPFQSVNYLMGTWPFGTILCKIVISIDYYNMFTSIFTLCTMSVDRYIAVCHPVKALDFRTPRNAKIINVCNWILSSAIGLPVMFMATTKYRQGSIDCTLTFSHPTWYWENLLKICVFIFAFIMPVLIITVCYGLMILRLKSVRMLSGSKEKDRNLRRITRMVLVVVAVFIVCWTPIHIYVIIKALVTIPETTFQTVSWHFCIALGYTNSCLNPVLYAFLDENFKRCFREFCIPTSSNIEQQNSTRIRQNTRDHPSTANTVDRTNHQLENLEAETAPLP

Target: human μ-opioid receptor (OPRM1) (Homo sapiens, UniProt P35372)
Experiment: Forskolin-induced cAMP accumulation assay, MOR antagonist mode
Details: read-out: MOR Antagonist IC50 ± SEM; cAMP Hunter CHO-K1 cells; versus EC90 of fentanyl

SMILES: C[C@H]1[C@H]2Cc3ccc(O)cc3[C@]1(C)CCN2CCCc1ccc([N+](=O)[O-])cc1 [Compound 31, (1R,5R,9R)-6,11-Dimethyl-3-(3-(4-nitrophenyl)propyl)-1,2,3,4,5,6-hexahydro-2,6-methanobenzo[d]azocin-8-ol]
- IC50: > 10 µM

SMILES: C[C@H]1[C@H]2Cc3ccc(O)cc3[C@]1(C)CCN2CCC1CCN(C)CC1 [Compound 28, (1R,5R,9R)-6,11-Dimethyl-3-(2-(1-methylpiperidin-4-yl)ethyl)-1,2,3,4,5,6-hexahydro-2,6-methanobenzo[d]azocin-8-ol]
- IC50: > 10 µM
